The list shows a part of the results, in another mix than the full data. Active and inactive are the calls of the source.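 The calls were made as follows: active = B-score under library mean minus 4 SD, starting fluorescence ratio at most library mean plus 5 SD; inactive = the rest.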

The chains behind the UniProt entries cited, without tags or fusion partners.
UniProt O14649, whole entry: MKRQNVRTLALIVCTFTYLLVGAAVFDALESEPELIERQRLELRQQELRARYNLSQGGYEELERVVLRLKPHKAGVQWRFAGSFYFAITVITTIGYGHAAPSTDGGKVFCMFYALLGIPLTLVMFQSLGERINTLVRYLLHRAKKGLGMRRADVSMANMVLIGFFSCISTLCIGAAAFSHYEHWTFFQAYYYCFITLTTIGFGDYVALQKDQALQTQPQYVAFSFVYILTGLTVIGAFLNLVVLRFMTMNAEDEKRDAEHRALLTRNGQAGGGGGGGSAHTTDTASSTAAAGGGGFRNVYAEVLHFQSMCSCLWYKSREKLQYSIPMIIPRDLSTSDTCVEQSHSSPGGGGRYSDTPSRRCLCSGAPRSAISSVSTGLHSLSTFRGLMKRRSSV

The target in this assay is Potassium channel subfamily K member 3 (Homo sapiens) (UniProt O14649). Description: human KCNK3 channel inhibitors, primary screen, CHO cells, FluxOR thallium flux, B-score (AID 602410). Conditions: FluxOR fluorescence, at 10 µM.
Regarding `CCC(=O)N(c1ccccc1)C1(COC)CCN(CCn2nnn(CC)c2=O)CC1`, the call was inactive.

On to `CCC(=O)N(c1ccccc1)C1(COC)CCN(CCc2cccs2)CC1`, for which the outcome was inactive.

Values taken from PubChem BioAssay AID602410 (Johns Hopkins Ion Channel Center, 2012).
